ChEMBL document CHEMBL1125385, “Novel inhibitors of prolyl 4-hydroxylase. 2. 5-Amide substituted pyridine-2-carboxylic acids” (J Med Chem, 1992)

Tested on: Prolyl 4-hydroxylase (Gallus gallus); call rule not given here
Test: Inhibition of Prolyl 4-hydroxylase activity in cultured embryonic chick tendon cells; NA=Not active

IC50 | SMILES
Not Active | O=C(Nc1ccc(C(=O)O)nc1)c1ccc(F)cc1
Not Active | Cc1ccc(C(=O)Nc2ccc(C(=O)O)nc2)cc1
